Test system: HCV genotype 1b replicon cells (Huh-luc)
Assay: EC50 determinations in Huh-luc replicon cells (Biological Example 2)
Format: cell-based
Conditions: for EC50: Hepatitis C virus, 72 h, 3 days, average ± standard deviation
Experimental: Compounds were serially diluted 1:3 in 100% DMSO (Sigma). These serial dilutions were added to the cells at a 1:200 dilution to achieve a final concentration of 0.5% DMSO in a total volume of 200 μL. Plates were incubated at 37° C. for 3 days, after which culture media were removed and cells were lysed and assayed for luciferase activity using a commercial luciferase assay (Promega, Madison, Wis.). HCV replication levels in drug-treated samples were expressed as a percentage of those in untreated controls (defined as 100%), and data were fit to the logistic dose response equation y=a/(1+(x/b)^c) using XLFit4 software (IDBS, Emeryville, Calif.). EC50 values were calculated from the resulting equations as described previously.

Structure (SMILES): CC[C@@H]1C[C@]1(NC(=O)[C@@H]1C[C@@H](Oc2cc(-c3csc(NC(C)C)n3)nc3c(Cl)c(OCCN4CCOCC4)ccc23)CN1C(=O)[C@@H](NC(=O)O[C@@H]1C[C@@H]2C[C@@H]2C1)C(C)(C)C)C(=O)O [Compound 3]
- EC50: 2.3 ± 2.6 nM

Structure (SMILES): Fc1ccccc1-c1nc2ccn(Cc3ccc(-c4ccc(C(F)(F)F)cc4C(F)(F)F)nn3)cc-2n1 [Compound 1, 5-((6-(2,4-bis(trifluoromethyl)phenyl)pyridazin-3-yl)methyl)-2-(2-fluorophenyl)-5H-imidazo[4,5-c]pyridine]
- EC50: 0.4 ± 0.14 nM

Structure (SMILES): NC(=O)c1ncn([C@@H]2O[C@H](CO)[C@@H](O)[C@H]2O)n1 [Ribavirin, 1-β-D-ribofuranosyl-1H-1,2,4-Triazole-3-carboxamide, reference compound]
- antiviral activity: no antiviral activity up to concentrations which were beginning to show cytotoxicity
